This is an account of results in patent US11116740B2, “Methods for use in support of planned supplement and food ingredient products for diagnosis and treatment of metabolic syndrome” (priority 2015, dated 2021).

The conditions of the data set: bottlenose dolphin (Tursiops truncatus), in vivo, 12 weeks. As for the experimental part: This study examined global metabolic profiles in six dolphins (“Group A dolphins”). The dolphins lived in netted enclosures within San Diego Bay. The dolphins started on a 100% capelin diet. Group A dolphins were fed one-third of their daily diet in the morning after their routine overnight fast and 2h postprandial, in-water, and trained blood samples were drawn (typically near 10:00 a.m.). An additional four dolphins (“Group C dolphins”) were fed the capelin diet.
Two hour post-prandial samples were collected from the dolphins at baseline (week 0) and at four time points following the switch to the modified diet: 6, 12, 18, and 24 weeks. Routine monthly samples collected from four reference dolphins that were housed in the same environment as the Group A dolphins were assessed for glucose, triglycerides, ferritin, and percent serum fatty acids. […]
Ultrahigh Performance Liquid Chromatography-Tandem Mass Spectroscopy (UPLC-MS/[…]): Each of four methods utilized a Waters ACQUITY ultra-performance liquid chromatography (UPLC) and a Thermo Scientific Q-Exactive high resolution/accurate mass spectrometer interfaced with a heated electrospray ionization (HESI-II) source and Orbitrap mass analyzer operated at 35,000 mass resolution. […] A first aliquot was analyzed using acidic positive ion conditions, chromatographically optimized for more hydrophilic compounds. […]

Regarding `CCCCCCCCC(=O)O` [perlargonate (9:0), nonanoic acid], the “serum concentration 12 wk / 0 wk” value is 1.14.
